The values below come from ChEMBL document CHEMBL5316273, “Small Molecule Inhibitors of Protein Kinase D: Early Development, Current Approaches, and Future Directions” (J Med Chem, 2023).

A short description of the assay: Selectivity index, ratio of IC50 for inhibition of PKD1 (unknown origin) to IC50 for inhibition of PKD1 autophosphorylation at S916 residue in human PANC-1 cells. The class given is cell-based.

Consider `CC[C@H](N)CNc1ccnc(-c2cc(-c3cnn(C)c3)ccc2O)n1`, for which the Ratio IC50 was greater than 1000.
